The values below are quoted from earlier work in article PMC6334293 (Journal of medicinal chemistry, 2018).

For the data set, the system named is GCB-and ABC-type DLBCL xenograft models. The conditions noted are these: cited from earlier work.

As for `O=C(O)CCN1C(=O)/C(=C2/C(=O)Nc3ccc(Cl)cc32)SC1=S` [FX1], the in vivo efficacy result (GCB-and ABC-type DLBCL xenograft models) is “excellent efficacy”. The in vivo toxicity result (at high concentrations) was “nontoxic”.
